From ChEMBL document CHEMBL1134503, “Synthesis, antifolate, and antitumor activities of classical and nonclassical 2-amino-4-oxo-5-substituted-pyrrolo[2,3-d]pyrimidines” (J Med Chem, 2001)

Target: T1, Dihydrofolate reductase (Homo sapiens, UniProt P00374)
T1 sequence (P00374 whole entry): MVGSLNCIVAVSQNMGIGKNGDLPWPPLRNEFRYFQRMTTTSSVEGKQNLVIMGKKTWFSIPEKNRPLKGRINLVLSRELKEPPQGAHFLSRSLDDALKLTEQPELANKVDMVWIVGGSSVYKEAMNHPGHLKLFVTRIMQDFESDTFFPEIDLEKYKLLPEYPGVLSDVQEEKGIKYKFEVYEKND

Compound: Nc1nc2[nH]cc(CCc3ccc(C(=O)N[C@@H](CCC(=O)O)C(=O)O)cc3)c2c(=O)[nH]1 [PEMETREXED]
- IC50: 2300 nM
